The results in this text go back to patent US6921835B2, “Cyclic amino acids and derivatives thereof useful as pharmaceutical agents” (Warner Lambert Company, priority 1997, dated 2005).

Protein sequences, listed by entry. Tags and fused reporters are not part of them. Lines headed by an entry give the natural chain unless they say otherwise; changes in a name come on top. Residues count along the entry.
UniProt A0A287BIN3, 25-1109: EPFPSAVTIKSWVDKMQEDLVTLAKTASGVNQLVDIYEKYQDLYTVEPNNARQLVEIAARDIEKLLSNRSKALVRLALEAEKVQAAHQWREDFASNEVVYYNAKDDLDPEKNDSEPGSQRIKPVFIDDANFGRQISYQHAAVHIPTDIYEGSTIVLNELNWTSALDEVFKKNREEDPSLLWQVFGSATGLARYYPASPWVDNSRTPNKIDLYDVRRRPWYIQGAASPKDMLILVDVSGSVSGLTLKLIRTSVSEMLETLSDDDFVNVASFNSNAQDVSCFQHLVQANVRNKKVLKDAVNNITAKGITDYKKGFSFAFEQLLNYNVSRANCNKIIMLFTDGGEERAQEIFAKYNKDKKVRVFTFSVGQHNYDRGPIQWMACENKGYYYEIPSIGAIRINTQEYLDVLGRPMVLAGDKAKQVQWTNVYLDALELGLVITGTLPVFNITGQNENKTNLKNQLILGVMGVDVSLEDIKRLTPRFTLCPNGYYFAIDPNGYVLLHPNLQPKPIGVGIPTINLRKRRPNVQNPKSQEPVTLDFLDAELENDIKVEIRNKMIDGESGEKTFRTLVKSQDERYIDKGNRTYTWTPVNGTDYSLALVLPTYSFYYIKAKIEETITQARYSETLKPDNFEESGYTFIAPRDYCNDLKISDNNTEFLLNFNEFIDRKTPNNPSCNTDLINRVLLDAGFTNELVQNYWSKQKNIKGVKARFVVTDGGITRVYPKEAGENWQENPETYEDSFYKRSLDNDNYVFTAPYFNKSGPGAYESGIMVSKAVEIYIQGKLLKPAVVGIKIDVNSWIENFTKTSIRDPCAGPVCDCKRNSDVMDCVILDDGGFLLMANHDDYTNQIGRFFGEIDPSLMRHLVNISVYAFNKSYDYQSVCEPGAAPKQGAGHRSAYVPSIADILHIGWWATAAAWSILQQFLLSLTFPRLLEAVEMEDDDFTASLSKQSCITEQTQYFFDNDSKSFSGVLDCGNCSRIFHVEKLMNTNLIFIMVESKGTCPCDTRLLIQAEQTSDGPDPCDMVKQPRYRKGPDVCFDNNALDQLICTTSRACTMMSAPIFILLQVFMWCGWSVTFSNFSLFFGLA

The target of this assay is T1, α2δ subunit (Sus scrofa, UniProt A0A287BIN3).
T1 construct: the α2δ subunit derived from porcine brain tissue was used; from tissue; host or cells: porcine brain tissue
In words: radioligand binding assay using [3H]gabapentin and the α2δ subunit. Also on record: species or system porcine.

Each structure is given as a SMILES string. pIC50: −log10 of the molar value.

By pIC50 is commonly meant the IC50 on a negative log10 scale, so that one unit is a factor of ten. Read a high pIC50 as a small IC50. For `NCC1(CC(=O)O)CCCCC1` [Gabapentin, 1-(aminomethyl)-cyclohexaneacetic acid, reference compound], the pIC50 is 6.92 to 7.00.
